The entries are a selection whose mix differs from that of the whole data set. Activity calls are given as the source filed them. No rule for the calls is given here.
Biological target: Regulator of G-protein signaling 16 (Homo sapiens) + Guanine nucleotide-binding protein G(o) subunit alpha (Homo sapiens) (UniProt O15492+P09471)
Assay: RGS16-Galphao interaction inhibitors and enhancers – biochemical, human proteins, multiplexed bead flow cytometry, primary screen (AID 1441);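 also: Galphao activated by GDP with aluminum fluoride before binding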
Settings: bead-based flow cytometry RGS16-Galphao binding, fluorescence; at 10 µM; actives lie on both sides

Amino acid sequences for entries named in this document (tags omitted).
UniProt O15492, whole entry, looked up: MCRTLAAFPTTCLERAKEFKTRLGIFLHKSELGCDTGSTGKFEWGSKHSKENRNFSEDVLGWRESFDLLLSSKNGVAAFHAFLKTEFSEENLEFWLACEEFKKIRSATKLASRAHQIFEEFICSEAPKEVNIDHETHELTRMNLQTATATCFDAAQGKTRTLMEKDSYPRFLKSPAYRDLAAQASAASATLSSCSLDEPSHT
UniProt P09471, whole entry, looked up: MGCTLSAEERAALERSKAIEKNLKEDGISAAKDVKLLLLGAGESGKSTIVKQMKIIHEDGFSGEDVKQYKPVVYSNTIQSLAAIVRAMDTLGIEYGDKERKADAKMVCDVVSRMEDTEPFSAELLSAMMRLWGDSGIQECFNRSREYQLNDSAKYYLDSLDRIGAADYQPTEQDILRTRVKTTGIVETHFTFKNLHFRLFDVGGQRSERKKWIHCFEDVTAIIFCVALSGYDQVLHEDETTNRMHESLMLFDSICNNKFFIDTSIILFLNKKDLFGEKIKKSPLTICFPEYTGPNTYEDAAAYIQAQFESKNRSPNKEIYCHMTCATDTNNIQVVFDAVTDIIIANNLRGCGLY

Row | SMILES | binding response (% of control)
1 | CCCOc1ccc(C)cc1CN(CCCl)CCCl | inactive: 93.1%
2 | CCC(CO)(C(=O)OC1CN2CCC1CC2)c1ccccc1 (centres undefined) | inactive: 95.1%
3 | COc1cc(OC)cc(C(=O)NCC2(N3CCOCC3)CCCCC2)c1 | inactive: 100%
4 | CC(C)(C)OC(=O)N1CCC(Nc2ccccc2)CC1 | inactive: 93.4%
5 | CCOc1ncccc1C(=O)NCC1(N2CCOCC2)CCCCC1 | inactive: 188%
6 | CN(C)c1ccc(C(=O)NCC2(N3CCCCC3)CCCCC2)cc1 | inactive: 95.4%
7 | CCN1CCC(Nc2cccc(F)c2)CC1 | inactive: 106%
8 | Fc1ccccc1NC1CCN(Cc2ccccc2)CC1 | inactive: 84.8%
9 | c1ccc(CN2CCC(Nc3ccccc3)CC2)cc1 | inactive: 96.6%
10 | N#Cc1ccc(C(=O)NCC2(N3CCCCC3)CCCCC2)cc1 | inactive: 109%
11 | O=C(OC1CN2CCC1CC2)C1c2ccccc2C=Cc2ccccc21 (centres undefined) | inactive: 85%
12 | N/C(=N\O)c1c(N)no[n+]1[O-] | inactive: 102%
13 | COc1ccc(C(=O)NCC2(N3CCOCC3)CCCCC2)cc1OC | inactive: 103%
14 | CN(C)c1cccc(C(=O)NCC2(N3CCCCC3)CCCCC2)c1 | inactive: 94.3%
15 | COc1ccc(CN(CCCl)CCCl)cc1Cl | inactive: 98.9%
16 | CC(C)c1ccc(NC2CCN(C(=O)OC(C)(C)C)CC2)cc1 | inactive: 105%
17 | COc1ccc(NC2CCN(C(=O)OC(C)(C)C)CC2)cc1 | inactive: 97.7%
18 | CN1CCN(CCOC(=O)C(O)(c2ccccc2)c2ccccc2)CC1 | inactive: 101%
19 | O=C(NCC1(N2CCOCC2)CCCCC1)c1cc(=O)[nH]c2ccccc12 | inactive: 104%
20 | O=C(NCC1(N2CCCCC2)CCCCC1)c1cccc([N+](=O)[O-])c1 | inactive: 98.6%
21 | N#CC1(Nc2ccccc2)CCN(CCc2ccccc2)CC1 | inactive: 104%
22 | Cc1ccc(OCC(C)C)c(CN(CCCl)CCCl)c1 | inactive: 101%
23 | COc1ccc(NC2CCN(CCc3ccccc3)CC2)c(OC)c1 | inactive: 106%
24 | CCOc1ccc(C)cc1CN(CCCl)CCCl | inactive: 104%
25 | CCOC(=O)N1CCC(Nc2ccc(OC)cc2)CC1 | inactive: 103%
26 | O=C(OC1CN2CCC1CC2)C1c2ccccc2Oc2ccccc21 (centres undefined) | inactive: 102%
27 | N#CC1(Nc2ccccc2)CCN(Cc2ccccc2)CC1 | inactive: 103%
28 | O=C(NCC1(N2CCOCC2)CCCCC1)c1cc2ccccc2o1 | inactive: 328%
29 | COc1ccc(C(=O)NCC2(N3CCCCC3)CCCCC2)c(OC)c1OC | inactive: 101%
